Legend:
Assay type in all cases: cell-based
Human KOR = Human KOR (Homo sapiens, UniProt P41145); assay: BRET functional assay, G protein activation (agonist mode), human KOR; conditions: read-out: EC50 at indicated opioid receptor, Human KOR; Table 3; HEK-293T, BRET signal at 5 minutes
Human DOR = Human DOR (Homo sapiens, UniProt P41143); assay: BRET functional assay, G protein activation (agonist mode), human DOR; conditions: read-out: EC50 at indicated opioid receptor, Human DOR; Table 3; HEK-293T, BRET signal at 5 minutes
Human MOR = Human MOR (Homo sapiens, UniProt P35372); assay: BRET functional assay, G protein activation (agonist mode), human MOR; conditions: read-out: EC50 at indicated opioid receptor, Human MOR; Table 3; HEK-293T, BRET signal at 5 minutes

Sequences of proteins named here, by UniProt entry; tags and fusion partners are left off. A change or cut given only in a name is not applied to a line headed by its entry.
UniProt P41145: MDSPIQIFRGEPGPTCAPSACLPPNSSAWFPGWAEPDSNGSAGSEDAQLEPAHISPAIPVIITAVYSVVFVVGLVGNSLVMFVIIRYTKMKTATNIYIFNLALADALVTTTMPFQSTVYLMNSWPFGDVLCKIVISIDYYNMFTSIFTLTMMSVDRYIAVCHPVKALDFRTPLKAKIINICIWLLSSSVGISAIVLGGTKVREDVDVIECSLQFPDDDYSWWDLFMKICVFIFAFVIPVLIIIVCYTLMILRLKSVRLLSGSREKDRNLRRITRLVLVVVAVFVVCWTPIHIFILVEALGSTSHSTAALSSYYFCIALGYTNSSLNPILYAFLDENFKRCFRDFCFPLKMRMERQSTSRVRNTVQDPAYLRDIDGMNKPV
UniProt P41143, whole entry, looked up: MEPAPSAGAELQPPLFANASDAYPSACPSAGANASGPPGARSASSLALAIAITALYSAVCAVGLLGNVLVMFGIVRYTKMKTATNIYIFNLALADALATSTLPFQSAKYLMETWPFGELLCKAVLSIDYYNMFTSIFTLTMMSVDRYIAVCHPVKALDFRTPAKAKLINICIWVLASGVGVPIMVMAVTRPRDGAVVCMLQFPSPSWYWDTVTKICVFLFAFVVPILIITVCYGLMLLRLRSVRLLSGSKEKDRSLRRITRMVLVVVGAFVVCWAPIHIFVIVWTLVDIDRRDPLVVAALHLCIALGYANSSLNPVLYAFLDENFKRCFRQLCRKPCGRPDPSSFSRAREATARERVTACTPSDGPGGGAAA
UniProt P35372, whole entry, looked up: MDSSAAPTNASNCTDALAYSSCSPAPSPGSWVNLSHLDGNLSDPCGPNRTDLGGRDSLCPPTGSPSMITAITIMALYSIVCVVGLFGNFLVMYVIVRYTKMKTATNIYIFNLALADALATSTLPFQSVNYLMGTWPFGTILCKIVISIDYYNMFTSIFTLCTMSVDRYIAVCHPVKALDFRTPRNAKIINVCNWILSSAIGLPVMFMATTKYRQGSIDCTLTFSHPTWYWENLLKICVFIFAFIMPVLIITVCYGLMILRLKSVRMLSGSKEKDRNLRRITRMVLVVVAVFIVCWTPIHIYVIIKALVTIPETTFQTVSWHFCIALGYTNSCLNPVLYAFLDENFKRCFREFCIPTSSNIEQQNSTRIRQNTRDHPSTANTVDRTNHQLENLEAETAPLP

## CCC1CC2CC3c4nc5ccc(O)cc5n4CCN(C2)C13 (stereo not drawn)
Human KOR
  EC50: > 10 µM
Human DOR
  EC50: > 100 µM
Human MOR
  EC50: > 100 µM

Reference: patent US11840541B2 (priority 2014, dated 2023)
